Columns and labels:
FLT3-ITD-D835V = FLT3-ITD-D835V (Homo sapiens (Human), UniProt P36888, D835V/INS600HVDFREYEYD); test: pFLT3 MSD assay, Ba/F3 FLT3-ITD-D835V; assay type: cell-based; conditions: Ba/F3 FLT3-ITD-D835V cells, 2 hours, read-out: BaF3-FLT3-ITD-D835V pFlt3 IC50
FLT3-ITD-F691L = FLT3-ITD-F691L (Homo sapiens (Human), UniProt P36888, F691L/INS600HVDFREYEYD); test: pFLT3 MSD assay, Ba/F3 FLT3-ITD-F691L; assay type: cell-based; conditions: Ba/F3 FLT3-ITD-F691L cells, 2 hours, read-out: BaF3-FLT3-ITD-F691L pFlt3 IC50
[1] = test system: Ba/F3 cells expressing FLT3-ITD-D835V
[2] = test system: Ba/F3 cells expressing FLT3-ITD

| SMILES | IC50 (FLT3-ITD-D835V) | IC50 (FLT3-ITD-F691L) | IC50 [1] | IC50 [2] |
| --- | --- | --- | --- | --- |
| O=C(Cc1ccc(-c2cnc3[nH]nc(OCCF)c3c2)cc1F)Nc1cc(C2(C(F)(F)F)CC2)on1 [Example 104, 2-[2-fluoro-4-[3-(2-fluoroethoxy)-1H-pyrazolo[3,4-b]pyridin-5-yl]phenyl]-N-[5-[1-(trifluoro-methyl)cyclopropyl]isoxazol-3-yl]acetamide] | < 10 nM | < 10 nM | < 10 nM | < 10 nM |
| COc1cc2cc(-c3ccc(CC(=O)Nc4cc(C(C)(C)C(F)(F)F)on4)c(F)c3)cnc2cc1OC [Example 129, 2-[4-(6,7-dimethoxy-3-quinolyl)-2-fluoro-phenyl]-N-[5-(2,2,2-trifluoro-1,1-dimethyl-ethyl)isoxazol-3-yl]acetamide] | < 10 nM | < 10 nM | < 10 nM | < 10 nM |
| COc1cc2cc(-c3ccc(CC(=O)Nc4cc(C5(C(F)(F)F)CC5)on4)c(F)c3)cnc2cc1OCCOC(C)=O [Example 127, 2-[[3-[3-fluoro-4-[2-oxo-2-[[5-[1-(trifluoro-methyl)cyclopropyl]isoxazol-3-yl]amino]ethyl]phenyl]-6-methoxy-7-quinolyl]oxy]ethyl acetate] | < 10 nM | < 10 nM | < 10 nM | < 10 nM |
| O=C(Cc1ccc(-c2cnc3[nH]ncc3c2)cc1F)Nc1cc(C2(C(F)(F)F)CC2)on1 [Example 33, 2-(2-fluoro-4-(1H-pyrazolo[3,4-b]pyridin-5-yl)phenyl)-N-(5-(1-(trifluoromethyl)cyclopropyl)isoxazol-3-yl)acetamide] | < 10 nM | < 10 nM | < 10 nM | < 10 nM |
| O=C(Cc1ccc(-c2cnc3[nH]nc(OCC(F)F)c3c2)cc1F)Nc1cc(C2(C(F)(F)F)CC2)on1 [Example 102, 2-[4-[3-(2,2-difluoroethoxy)-1H-pyrazolo[3,4-b]pyridin-5-yl]-2-fluoro-phenyl]-N-[5-[1-(trifluoro-methyl)cyclopropyl]isoxazol-3-yl]acetamide] | < 10 nM | < 10 nM | < 10 nM | < 10 nM |
| COc1cc2ncc(-c3ccc(CC(=O)Nc4cc(C(C)(C)C(F)(F)F)on4)c(F)c3)nc2cc1OC [Example 46, 2-(4-(6,7-dimethoxyquinoxalin-2-yl)-2-fluorophenyl)-N-(5-(1,1,1-trifluoro-2-methylpropan-2-yl)isoxazol-3-yl)acetamide] | < 10 nM | < 10 nM | < 10 nM | < 10 nM |
| COc1cc2nc(-c3ccc(CC(=O)Nc4cc(C(C)(C)C(F)(F)F)on4)c(F)c3)cnc2cc1OC1CNC1 [Example 148, 2-[4-[6-(azetidin-3-yloxy)-7-methoxy-quinoxalin-2-yl]-2-fluoro-phenyl]-N-[5-(2,2,2-trifluoro-1,1-dimethyl-ethyl)isoxazol-3-yl]acetamide] | 20 to 50 nM | 10 to 20 nM | < 10 nM | < 10 nM |
| COc1cc2cc(-c3ccc(CC(=O)Nc4cc(C5(C(F)(F)F)CC5)on4)c(F)c3)cnc2cc1OC [Example 128, 2-[4-(6,7-dimethoxy-3-quinolyl)-2-fluoro-phenyl]-N-[5-[1-(trifluoro-methyl)cyclopropyl]isoxazol-3-yl]acetamide] | < 10 nM | < 10 nM | < 10 nM | < 10 nM |
| CC(C)(C)c1cc(NC(=O)Cc2ccc(-c3cnc4[nH]c(C(=O)NCCO)cc4c3)cc2)no1 [Example 64, 5-(4-(2-((5-(tert-butyl)isoxazol-3-yl)amino)-2-oxoethyl)phenyl)-N-(2-hydroxyethyl)-1H-pyrrolo[2,3-b]pyridine-2-carboxamide] | < 10 nM | < 10 nM | < 10 nM | < 10 nM |
| COc1cc2ncc(-c3ccc(CC(=O)Nc4cc(C(C)(C)C)on4)c(F)c3)nc2cc1OC [Example 43, N-(5-(tert-butyl)isoxazol-3-yl)-2-(4-(6,7-dimethoxyquinoxalin-2-yl)-2-fluorophenyl)acetamide] | < 10 nM | < 10 nM | < 10 nM | < 10 nM |
| CC(C)(C)c1cc(NC(=O)Cc2ccc(-c3cnc4[nH]c(C(=O)NCCS(C)(=O)=O)cc4c3)cc2)no1 [Example 68, 5-(4-(2-((5-(tert-butyl)isoxazol-3-yl)amino)-2-oxoethyl)phenyl)-N-(2-(methylsulfonyl)ethyl)-1H-pyrrolo[2,3-b]pyridine-2-carboxamide] | < 10 nM | < 10 nM | < 10 nM | < 10 nM |

Now from value to compound:

| IC50 (FLT3-ITD-D835V) | IC50 (FLT3-ITD-F691L) | IC50 [1] | IC50 [2] | SMILES |
| --- | --- | --- | --- | --- |
| < 10 nM | < 10 nM | < 10 nM | < 10 nM | COc1cc2cc(-c3ccc(CC(=O)Nc4cc(C5(C(F)(F)F)CC5)on4)c(F)c3)cnc2cc1OCCO [Example 88, 2-(2-fluoro-4-(7-(2-hydroxyethoxy)-6-methoxyquinolin-3-yl)phenyl)-N-(5-(1-(trifluoromethyl)cyclopropyl)isoxazol-3-yl)acetamide] |
| < 10 nM | < 10 nM | < 10 nM | < 10 nM | COc1cc2ncc(-c3ccc(CC(=O)Nc4cc(C5(C(F)(F)F)CC5)on4)c(F)c3)nc2cc1OC [Example 4, 2-(4-(6,7-dimethoxyquinoxalin-2-yl)-2-fluorophenyl)-N-(5-(1-(trifluoromethyl)cyclopropyl)isoxazol-3-yl)acetamide] |
| < 10 nM | < 10 nM | < 10 nM | < 10 nM | COc1cc2nc(-c3ccc(CC(=O)Nc4cc(C5(C(F)(F)F)CC5)on4)c(F)c3)cnc2cc1OCCO [Example 131, 2-[2-fluoro-4-[6-(2-hydroxyethoxy)-7-methoxy-quinoxalin-2-yl]phenyl]-N-[5-[1-(trifluoromethyl)cyclo-propyl]isoxazol-3-yl]acetamide] |
| < 10 nM | < 10 nM | < 10 nM | < 10 nM | COCCOc1cc2ncc(-c3ccc(CC(=O)Nc4cc(C5(C(F)(F)F)CC5)on4)c(F)c3)nc2cc1OCCOC [Example 125, 2-[4-[6,7-bis(2-methoxyethoxy)quinoxalin-2-yl]-2-fluoro-phenyl]-N-[5-[1-(trifluoro-methyl)cyclopropyl]isoxazol-3-yl]acetamide] |
| < 10 nM | < 10 nM | < 10 nM | < 10 nM | COc1cc2nc(-c3ccc(CC(=O)Nc4cc(C5(C(F)(F)F)CC5)on4)c(F)c3)cnc2cc1OCCN1CCOCC1 [Example 79, 2-(2-fluoro-4-(7-methoxy-6-(2-morpholinoethoxy)quinoxalin-2-yl)phenyl)-N-(5-(1-(trifluoromethyl)cyclopropyl)isoxazol-3-yl)acetamide] |
| < 10 nM | < 10 nM | < 10 nM | < 10 nM | COCCOc1cc2ncc(-c3ccc(CC(=O)Nc4cc(C5(C(F)(F)F)CC5)on4)c(F)c3)cc2cc1OC [Example 126, 2-[2-fluoro-4-[6-methoxy-7-(2-methoxyethoxy)-3-quinolyl]phenyl]-N-[5-[1-(trifluoromethyl)cyclo-propyl]isoxazol-3-yl]acetamide] |
| < 10 nM | < 10 nM | < 10 nM | < 10 nM | COc1cc2ncc(-c3ccc(CC(=O)Nc4cc(C5(C(F)(F)F)CC5)on4)c(F)c3)nc2cc1OCCN(C)C [Example 158, 2-[4-[7-[2-(dimethylamino)ethoxy]-6-methoxy-quinoxalin-2-yl]-2-fluoro-phenyl]-N-[5-[1-(trifluoromethyl)cyclo-propyl]isoxazol-3-yl]acetamide] |

Source: patent US9725465B2, “Biaryl acetamide compounds and methods of use thereof” (Ambit Biosciences Corporation, priority 2013, dated 2017)
